Data on one substance can be found in patent US20080152589A1, “Diagnostics and Therapeutics of Neurological Disease” (priority 2006, published 2008).

Protein sequences, listed by entry. Tags and fused reporters are not part of them. Lines headed by an entry give the natural chain unless they say otherwise; changes in a name come on top.
UniProt P49841: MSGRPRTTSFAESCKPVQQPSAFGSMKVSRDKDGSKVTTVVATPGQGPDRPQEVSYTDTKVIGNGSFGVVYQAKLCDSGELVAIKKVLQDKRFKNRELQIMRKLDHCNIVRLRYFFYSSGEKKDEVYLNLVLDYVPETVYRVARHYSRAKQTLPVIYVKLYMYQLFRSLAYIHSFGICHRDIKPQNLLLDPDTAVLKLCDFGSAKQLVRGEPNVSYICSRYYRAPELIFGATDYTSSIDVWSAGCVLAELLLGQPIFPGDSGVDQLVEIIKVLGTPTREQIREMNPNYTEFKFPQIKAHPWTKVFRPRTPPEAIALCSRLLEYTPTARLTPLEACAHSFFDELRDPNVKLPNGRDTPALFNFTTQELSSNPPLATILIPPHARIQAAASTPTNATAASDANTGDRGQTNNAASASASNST

“And” between values parts separate entries of the source, which are not always exact repeats. Equal entries are not always repeated.

The assay addresses GSK-3β (endogenous, HEK293 and SK-N-MC cells) (human) (UniProt P49841). The experiment in a line: cell-based or functional assay.

As to “4 repeat Tau (full-length Tau protein with exon 10 sequences) (from UniProt P10636 1-441)”, the decrease in total β-catenin levels (Western blot) after transient over-expression of Tau was 1.3 fold and 1.4 fold.
